Test results published in patent publication US9457003B2, “Phenyl carbamate compound and a composition for preventing or treating a nerve gas-induced disease comprising the same” (dated 2016).

Key:
[1] = tested on: maximal electroshock seizure in ICR mice; test: MES test (anti-excitation activity); conditions: po
[2] = tested on: lithium-pilocarpine induced status epilepticus in Sprague-Dawley rats; test: Lithium-pilocarpine induced status epilepticus (SE) model, intervention; conditions: rat/iv, time = 0 min after the first motor seizure; for Protection % (Intervention activity): injection amount 46 mg/kg
[3] = tested on: lithium-pilocarpine induced seizure in Sprague-Dawley rats; test: Lithium-pilocarpine model for prevention study; conditions: rat, ip; for Protection %: compared to the vehicle only; for ED50 Prevention: at peak time, protection = absence of seizure grade 4-5 over 90 min

| Compound | Protection % ([1]; injection amount 200 mg/kg) | Protection % (Intervention activity) [2] | other results |
| --- | --- | --- | --- |
| CCCNC(=O)O[C@H](C)[C@H](O)c1ccccc1Cl | 200 ^a(25%) | ^a46 (100%) | – |
| CCCNC(=O)OC(C)C(O)c1ccccc1Cl (racemic) | 200 ^a(25%) | ^a46 (83.3%) | Protection % ([3]; injection amount 73.6 mg/kg): ^a73.6 (50%) |
| CCCNC(=O)O[C@@H](C)[C@@H](O)c1ccccc1Cl | 200 ^a(25%) | ^a46 (100%) | – |
| CNC(=O)OC(C)C(O)c1ccccc1Cl (racemic) | 200 ^a(75%) | – | Protection % ([3]; injection amount 60 mg/kg): ^a60 (100%) |
| CNC(=O)O[C@@H](C)[C@@H](O)c1ccccc1Cl | – | ^a46 (100%) | Protection % ([1]; injection amount 100 mg/kg): 100 ^a(75%) |
| C[C@@H](OC(N)=O)[C@@H](O)c1ccccc1Cl | – | ^a46 (100%) | Protection % ([3]; injection amount 60 mg/kg): ^a60 (50%) |
| C[C@@H](OC(N)=O)[C@H](O)c1ccccc1Cl | – | ^a46 (50%) | MES test ED50 [1]: 51.0 mg/kg; ED50 Prevention [3]: 71.9 mg/kg |
| CCCC[C@H](OC(N)=O)[C@@H](O)c1ccc(Cl)cc1Cl | – | ^a46 (16.7%) | Protection % ([1]; injection amount 100 mg/kg): 100 ^a(25%) |
| C[C@@H](OC(=O)NC1CC1)[C@H](O)c1ccccc1Cl | 200 ^a(25%) | ^a46 (100%) | Protection % ([3]; injection amount 60 mg/kg): ^a60 (100%) |
| CC(OC(N)=O)C(O)c1ccccc1Cl (racemic) | – | ^a46 (83.3%) | ED50 Prevention [3]: 31.7 mg/kg |
| C[C@H](OC(N)=O)[C@@H](O)c1c(Cl)cccc1Cl | – | ^a46 (100%) | MES test ED50 [1]: 25.8 mg/kg; Protection % ([3]; injection amount 35 mg/kg): ^a35 (100%) |
| C[C@H](OC(N)=O)[C@@H](O)c1ccccc1Cl | – | – | MES test ED50 [1]: 13.0 mg/kg; ED50 Prevention [3]: 18.0 mg/kg; ED50 Intervention [2]: 22.6 mg/kg |
| CCCCC(OC(N)=O)C(O)c1ccccc1Cl (racemic) | 200 ^a(100%) | – | – |
| C[C@@H](OC(N)=O)[C@H](O)c1c(Cl)cccc1Cl | – | ^a46 (50%) | Protection % ([3]; injection amount 60 mg/kg): ^a60 (66.7%) |
| CCC(OC(N)=O)C(O)c1ccccc1Cl (racemic) | – | ^a46 (50%) | Protection % ([1]; injection amount 100 mg/kg): 100 ^a(100%); Protection % ([3]; injection amount 60 mg/kg): ^a60 (83.3%) |
| C[C@H](OC(N)=O)[C@H](O)c1ccccc1Cl | – | ^a46 (66.7%) | – |

| Compound | Protection % ([1]; injection amount 200 mg/kg) | Protection % (Intervention activity) [2] | other results |
| --- | --- | --- | --- |
| C[C@H](OC(N)=O)[C@@H](O)c1cccc(Cl)c1Cl | – | ^a46 (50%) | Protection % ([3]; injection amount 73.6 mg/kg): ^a73.6 (100%)^ |
| C[C@H](OC(=O)NC1CC1)[C@@H](O)c1ccccc1Cl | 200 ^a(100%) | ^a46 (66.7%) | – |
| CCCC[C@H](OC(N)=O)[C@@H](O)c1c(Cl)cccc1Cl | – | ^a46 (83.3%) | Protection % ([1]; injection amount 100 mg/kg): 100 ^a(75%) |
| CC(OC(=O)NC1CC1)C(O)c1ccccc1Cl (racemic) | 200 ^a(100%) | ^a46 (100%) | Protection % ([3]; injection amount 60 mg/kg): ^a60 (100%) |
| CCCC[C@H](OC(N)=O)[C@@H](O)c1ccccc1Cl | – | – | Protection % ([1]; injection amount 100 mg/kg): 100 ^a(75%) |
| C[C@H](OC(N)=O)[C@@H](O)c1ccccc1I | – | ^a46 (100%) | Protection % ([1]; injection amount 50 mg/kg): 50 ^a(100%); ED50 Prevention [3]: 15.3 mg/kg |
| CCCC[C@@H](OC(N)=O)[C@H](O)c1ccccc1Cl | 200 ^a(75%) | – | – |
| CC[C@H](OC(N)=O)[C@@H](O)c1c(Cl)cccc1Cl | – | ^a46 (100%) | – |
| C[C@H](OC(N)=O)[C@@H](O)c1ccc(Cl)cc1Cl | – | ^a46 (66.7%) | Protection % ([3]; injection amount 73.6 mg/kg): ^a73.6 (100%)^ |
| CC[C@H](OC(N)=O)[C@@H](O)c1ccccc1I | – | ^a46 (100%) | Protection % ([1]; injection amount 100 mg/kg): 100 ^a(100%); ED50 Prevention [3]: 28.2 mg/kg |
| C[C@H](OC(N)=O)[C@@H](O)c1ccccc1F | – | ^a46 (50%) | Protection % ([1]; injection amount 50 mg/kg): 50 ^a(100%); ED50 Prevention [3]: 49.3 mg/kg |
| CC(C)[C@H](OC(N)=O)[C@@H](O)c1c(Cl)cccc1Cl | – | ^a46 (66.7%) | Protection % ([3]; injection amount 60 mg/kg): ^a60 (83.3%) |
| CC(C)[C@H](OC(N)=O)[C@@H](O)c1ccccc1Cl | – | ^a46 (66.7%) | Protection % ([3]; injection amount 60 mg/kg): ^a60 (83.3%) |
| C[C@@H](OC(N)=O)[C@H](O)c1ccc(Cl)cc1Cl | – | ^a46 (33.3%) | – |
| CC[C@H](OC(N)=O)[C@@H](O)c1ccccc1Cl | – | ^a46 (100%) | Protection % ([3]; injection amount 60 mg/kg): ^a60 (100%) |
| CC(C)NC(=O)OC(C)C(O)c1ccccc1Cl (racemic) | 200 ^a(25%) | ^a46 (100%) | – |
